In article PMC6658998, “Pharmacological characterization of the seven human NOX isoforms and their inhibitors” (Redox Biology, 2019):

Experiments:
NOX5 [1] = molecular target: T1, NOX5 (Homo sapiens, UniProt Q96PH1); assay: Amplex Red/HRP H2O2 detection in NOX5-expressing HEK293 cells; type: cell-based
T1 construct: expressed in transfected cells
T1 sequence (Q96PH1 19-737 isoform Q96PH1-3 limits assumed): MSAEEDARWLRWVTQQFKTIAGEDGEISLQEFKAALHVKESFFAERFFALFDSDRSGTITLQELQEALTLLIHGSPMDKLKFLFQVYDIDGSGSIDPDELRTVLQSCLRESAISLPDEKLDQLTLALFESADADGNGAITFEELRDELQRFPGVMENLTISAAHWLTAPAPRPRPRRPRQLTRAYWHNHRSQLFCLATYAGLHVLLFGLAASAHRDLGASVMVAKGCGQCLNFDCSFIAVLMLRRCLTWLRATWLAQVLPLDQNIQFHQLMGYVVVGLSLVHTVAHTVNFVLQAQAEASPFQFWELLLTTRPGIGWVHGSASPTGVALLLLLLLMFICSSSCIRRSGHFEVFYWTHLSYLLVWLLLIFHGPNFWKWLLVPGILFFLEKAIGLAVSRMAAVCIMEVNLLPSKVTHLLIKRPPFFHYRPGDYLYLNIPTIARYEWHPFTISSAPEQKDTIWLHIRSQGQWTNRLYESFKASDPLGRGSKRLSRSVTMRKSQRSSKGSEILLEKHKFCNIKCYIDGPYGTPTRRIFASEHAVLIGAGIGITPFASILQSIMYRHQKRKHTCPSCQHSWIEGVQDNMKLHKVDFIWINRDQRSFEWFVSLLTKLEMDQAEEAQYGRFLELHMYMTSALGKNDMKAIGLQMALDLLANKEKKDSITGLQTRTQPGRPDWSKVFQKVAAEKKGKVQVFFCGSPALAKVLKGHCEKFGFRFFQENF

NOX5 [2] = molecular target: T1, NOX5; assay: WST-1 O2•- detection in NOX5-expressing HEK293 cells; type: cell-based

c1ccc2c(c1)[I+]c1ccccc1-2 [DPI, diphenylene iodonium chloride]
IC50 (NOX5 [1]): 400 nM
IC50 (NOX5 [2]): 1200 nM
